The target of assay [1] is TEAD1(210-426) binding to YAP(50-100) (Homo sapiens, UniProt P28347). Briefly: TR-FRET Assay for TEAD1(210-426) Binding to YAP(50-100). The note with it: His-TEAD 10 nM, YAP-Biotin peptide 50 nM. For orientation: TR-FRET usually uses a lanthanide donor and a delayed reading to cut background.
In the next assay the test system is MSTO-211H cells. Briefly: Proliferation Assay (CellTiter-Glo Luminescent Cell Viability Assay). The note with it: read-out: MSTO-211H IC50, 96 hours treatment. On the procedure: Example 5: Proliferation Assay
The effect of compound on YAP driven cancer cells proliferation was assessed in MSTO-211H (ATCC, CRL-2081TM) or NCI-H2052 (ATCC, CRL-5915TM) cells using CellTiter-Glo Luminescent Cell Viability Assay (Promega, G7570).
Briefly, individual cell lines were seeded in 96-well cell culture plate at the density of 1,500 cells per well and cultured in RPMII1640 (Gibco-A10491-01)+10% FBS (Gibco-10099-141C)+1% Penicillin-Streptomycin (5,000 U/mL, Gibco-15070-063) overnight at 37° C. with 5% CO2 before adding the compounds.
Following incubation, serial dilutions of compounds dissolved in DMSO were added to each well (3-fold dilution with 9 concentration points). The final concentration of DMSO present in this assay is below 0.5% and make duplication for each compound treated well.
Following 96 hours treatment, compound mediated cell growth inhibition was measured using CellTiter-Go Luminescent Cell Viability Assay (Promega, G7570). […] CellTiter-Glo in each assay well, mix and incubate at room temperature for 10 min. Read signal using EnVision® Multilabel Plate Reader (Perkin Elmer).
For data analysis, cell proliferation inhibition was calculated using the following formula:
Inhibition %=(1−(Compound treated well CTG signal/DMSO well CTG signal))*100.
IC50 values were calculated using GraphPad Prism software using a four-parameter fit model.
(ATP-based viability assays read luminescence as a measure of living cells.)

The chains behind the UniProt entries cited, without tags or fusion partners. Residues count along the entry.
UniProt P28347, 209-426: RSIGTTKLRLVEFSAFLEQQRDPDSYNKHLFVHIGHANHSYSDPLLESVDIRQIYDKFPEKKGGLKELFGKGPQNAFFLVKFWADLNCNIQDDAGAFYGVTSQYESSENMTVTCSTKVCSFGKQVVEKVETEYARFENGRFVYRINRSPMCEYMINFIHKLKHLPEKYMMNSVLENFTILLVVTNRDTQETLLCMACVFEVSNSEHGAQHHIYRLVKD

Each structure is given as a SMILES string. Where only a bound is given, the exact number is not on record here.

These results are taken from patent publication US20250154127A1, “BICYCLIC HETEROARYL COMPOUNDS AND USES THEREOF” (ETERN BIOPHARMA (SHANGHAI) CO., LTD., priority 2022, published 2025).

For orientation: IC50 means the point on the concentration scale where inhibition reaches its midpoint.

Turning to `O=c1cc(-c2nn(-c3ccc(C(F)(F)F)cc3)c3ncccc23)ccn1Cc1ccnc(CO)n1`, the figures for the concentration for half-maximal inhibition (IC50) (in assay [1]; with MSTO-211H cells) were less than 100 nM and less than 1000 nM, respectively.

`CNc1nccc(Cn2ccc(-c3nn(-c4ccc(C(F)(F)F)cc4F)c4c(F)cccc34)cc2=O)n1`: the IC50 was less than 100 nM in assay [1] and less than 1000 nM in the assay on MSTO-211H cells.
